PubChem BioAssay AID1499 (Sanford-Burnham Center for Chemical Genomics, 2009)
The entries are a selection whose mix differs from that of the whole data set. Some results for these compounds are left out of this collection, so the calls shown say nothing about other tests. Active and inactive are the calls of the source.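 The calls were made as follows: active = 10 µM primary screen giving 50% or more activity, confirmed by 40% or more on retest at that dose; inactive = the rest.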

The chains behind the UniProt entries cited, without tags or fusion partners.
UniProt P05107, whole entry, looked up: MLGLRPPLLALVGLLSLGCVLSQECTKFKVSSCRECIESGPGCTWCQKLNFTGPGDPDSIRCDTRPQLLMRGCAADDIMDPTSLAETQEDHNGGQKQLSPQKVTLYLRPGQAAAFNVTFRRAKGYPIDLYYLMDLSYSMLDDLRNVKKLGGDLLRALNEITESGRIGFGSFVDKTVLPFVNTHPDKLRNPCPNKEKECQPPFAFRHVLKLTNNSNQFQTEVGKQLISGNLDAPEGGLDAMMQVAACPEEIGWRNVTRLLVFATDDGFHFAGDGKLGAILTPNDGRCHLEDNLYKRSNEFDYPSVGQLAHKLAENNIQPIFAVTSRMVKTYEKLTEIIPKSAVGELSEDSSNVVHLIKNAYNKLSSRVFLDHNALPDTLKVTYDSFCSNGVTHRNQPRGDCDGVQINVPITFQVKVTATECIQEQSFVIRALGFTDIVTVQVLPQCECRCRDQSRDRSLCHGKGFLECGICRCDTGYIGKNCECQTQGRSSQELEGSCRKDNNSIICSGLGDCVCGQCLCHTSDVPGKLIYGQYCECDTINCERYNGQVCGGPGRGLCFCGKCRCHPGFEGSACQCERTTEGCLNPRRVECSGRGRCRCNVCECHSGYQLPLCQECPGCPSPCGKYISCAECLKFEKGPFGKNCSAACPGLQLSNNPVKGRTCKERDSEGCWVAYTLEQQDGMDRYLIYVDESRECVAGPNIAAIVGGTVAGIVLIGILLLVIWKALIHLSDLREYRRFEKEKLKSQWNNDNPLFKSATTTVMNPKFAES

Each compound was assayed against Integrin beta-2 (Homo sapiens) + Integrin alpha-M (Homo sapiens) (UniProt P05107+P11215) (assay: enhancers of CD11b/CD18 adhesion to fibrinogen, primary screen, K562 cells, luminescence (AID 1499)). Conditions: ATPlite luminescence, at 10 µM, stronger effect = higher value.

| SMILES | activation |
| --- | --- |
| CN(C)C1CCCC1OC(=O)C(O)(c1ccccc1)c1ccccc1 (stereo not drawn) | inactive: 2.6% |
| O=C(OC1CN2CCC1CC2)C(CO)(c1ccccc1)c1ccccc1 (stereo not drawn) | inactive: 3.5% |
| CN(C)c1cccc(C(=O)NCC2(N(C)C)CCCCC2)c1 | inactive: -0.8% |
